{"source": "patent US20090233871A1", "about": "“Complexed polypeptide and adjuvant for improved vaccines” (priority 2004, published 2009)", "test_system": "CD8+ CTLs, T2 stimulators pulsed with polypeptide", "type": "in vivo, HLA-A2 transgenic mice", "conditions": "100 μg CpG, equimolar CpG:peptide, s.c., day 10 (FIG. 8)", "data": [{"sequence": "AAGIGILTV", "values": [{"measurement": "priming on addition of a KCSRNR amino acid sequence vs native polypeptide", "value": "increased priming"}]}]}
